Results as given in paper PMC2607018, “Iodine Atoms: A New Molecular Feature for the Design of Potent Transthyretin Fibrillogenesis Inhibitors” (PLoS ONE, 2009).

Target: TTR variant Y78F (Homo sapiens, UniProt P02766, Y98F)
Assay: Kinetic turbidity assay of acid induced fibril formation

SMILES: Oc1cc(Cl)ccc1Oc1ccc(Cl)cc1Cl [Triclosan, reference compound]
- IC50: 48 µM
